Experimental data taken from patent US8883765B2, “Anti-cytomegalovirus activity of artemisinin-derived dimers” (The John Hopkins University, priority 2009, dated 2014).

Tested on: pp 28-luciferase expressing CMV (Towne)
Assay type: cell-based, human CMV
From the text: A recombinant virus expressing luciferase reporter gene under the control of UL99 (pp 28) late promoter was generated by insertion of the reporter gene between the US9 and US10 ORFs in the Towne genome. […] Ahn J H, Hayward G S. Disruption of PML-associated nuclear bodies by IE1 correlates with efficient early stages of viral gene expression and DNA replication in human cytomegalovirus infection. Virology. 2000; 274:39-55.
Towne-GFP, Towne-luciferase, and SB viruses were used in these assays. HFF or HEL were grown to subconfluent monolayers and infected with the CMV viruses at MOI 0.1 to 3. […] J Mol Med. 2002; 80:233-242. The concentration of each compound was calculated and adjusted by volume such that it was constant throughout the experiment. Following 90 minute incubation, media was replaced with fresh media containing the drug used. Infected and treated cells were incubated at 37° C. in a 5% CO2 atmosphere for 3-10 days depending on the virus and the anti-viral assay. The recombinant luciferase-expressing virus was incubated for 72 hours, the GFP virus was incubated for 5 days, and the clinical isolate for 10 days. All experiments were subsequently repeated with compounds added to wells just after viral inoculation.

Which “times more selective than the monomers” value (from SI of Table 1) does the source give for `Nc1nc(O)c2ncn(COC(CO)CO)c2n1` [GCV, Ganciclovir] here?
Its value is “approximately 10 times”.

What about the “Selectivity index (SI)” value (ratio between CC50 and EC50) of the same compound?
The value was 44 ± 6.2.
